Assay results reported in patent publication US20180162947A1 (UCB, published 2018).

By UniProt entry, the sequences of proteins in these tests, tags left out. Residues count along the entry.
UniProt P07333, 20-972: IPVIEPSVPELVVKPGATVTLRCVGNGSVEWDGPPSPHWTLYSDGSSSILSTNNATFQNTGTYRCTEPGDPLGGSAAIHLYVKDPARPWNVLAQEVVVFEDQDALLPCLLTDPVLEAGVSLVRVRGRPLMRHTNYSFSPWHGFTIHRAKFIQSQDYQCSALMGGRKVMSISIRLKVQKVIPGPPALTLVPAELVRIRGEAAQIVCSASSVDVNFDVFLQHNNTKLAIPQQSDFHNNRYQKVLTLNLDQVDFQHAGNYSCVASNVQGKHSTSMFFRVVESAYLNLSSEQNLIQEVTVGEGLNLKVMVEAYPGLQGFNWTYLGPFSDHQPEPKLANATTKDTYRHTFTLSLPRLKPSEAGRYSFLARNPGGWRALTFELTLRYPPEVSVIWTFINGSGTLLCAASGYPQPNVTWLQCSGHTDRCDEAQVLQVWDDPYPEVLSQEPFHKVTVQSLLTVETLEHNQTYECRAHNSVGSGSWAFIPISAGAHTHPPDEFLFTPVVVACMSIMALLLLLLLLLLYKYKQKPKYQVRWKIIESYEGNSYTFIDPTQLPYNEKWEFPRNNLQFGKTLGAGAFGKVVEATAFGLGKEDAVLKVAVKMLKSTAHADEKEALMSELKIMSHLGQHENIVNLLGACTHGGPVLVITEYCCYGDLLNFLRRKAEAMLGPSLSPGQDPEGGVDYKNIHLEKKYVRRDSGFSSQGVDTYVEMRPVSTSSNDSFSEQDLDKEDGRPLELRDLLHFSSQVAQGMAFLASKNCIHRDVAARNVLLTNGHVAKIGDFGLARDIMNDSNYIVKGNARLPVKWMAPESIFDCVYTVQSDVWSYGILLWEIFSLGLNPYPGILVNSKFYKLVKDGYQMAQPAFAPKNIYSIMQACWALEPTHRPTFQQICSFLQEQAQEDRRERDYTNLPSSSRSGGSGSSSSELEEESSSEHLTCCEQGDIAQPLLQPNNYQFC
UniProt P07333, 20-512 limits assumed: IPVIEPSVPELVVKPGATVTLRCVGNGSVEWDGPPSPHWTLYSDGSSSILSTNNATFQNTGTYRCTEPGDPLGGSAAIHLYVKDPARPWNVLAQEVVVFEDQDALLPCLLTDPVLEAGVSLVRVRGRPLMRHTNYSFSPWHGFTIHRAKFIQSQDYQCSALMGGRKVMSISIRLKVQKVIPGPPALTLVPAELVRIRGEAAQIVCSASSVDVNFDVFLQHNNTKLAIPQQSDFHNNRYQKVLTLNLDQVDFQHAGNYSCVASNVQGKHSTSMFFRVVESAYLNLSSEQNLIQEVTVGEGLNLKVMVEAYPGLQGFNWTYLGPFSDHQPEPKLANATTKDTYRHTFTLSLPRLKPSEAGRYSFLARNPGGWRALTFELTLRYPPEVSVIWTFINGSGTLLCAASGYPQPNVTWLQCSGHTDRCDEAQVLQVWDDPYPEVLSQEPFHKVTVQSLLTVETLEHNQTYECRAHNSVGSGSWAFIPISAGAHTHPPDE

Assays:
[1] = molecular target: T1, human CSF-1R on cells (THP-1 cells, transfected HEK293F cells, primary human monocytes) (human, UniProt P07333 20-972); assay: cell-based or functional assay
[2] = molecular target: T1, human CSF-1R on cells (THP-1 cells, …); assay: cell-based or functional assay; remark: listed apart in the source
[3] = molecular target: T2, recombinant human CSF-1R (form not stated) (human, UniProt P07333 20-512, limits assumed); assay: BIAcore, experiment 1 of 3
T2 construct: for the ELISA no species is stated; also called recombinant CSF-1R; recombinant CSF-1R protein
Method: (§1) The assay format was capture of the anti-CSF-1R antibodies by immobilised anti-human IgG,F(ab′)₂, then a titration of hCSF-1R/Fc over the captured surface. BIA (Biomolecular Interaction Analysis) was performed using a BIAcore 3000 (GE Healthcare Bio-Sciences AB). All experiments were performed at 25° C. An AffiniPure F(ab′)₂ fragment goat anti-human IgG, F(ab′)₂ fragment specific (Jackson ImmunoResearch), was immobilised on a CM5 Sensor Chip (GE Healthcare Bio-Sciences AB) via amine coupling chemistry to a level of ˜5000 response units (RU). HBS-EP buffer (10 mM HEPES, pH 7.4, 0.15M NaCl, 3 mM EDTA, 0.005% Surfactant P20, GE Healthcare Bio-Sciences AB) was used as the running buffer with a flow rate of 10 μl/min.

[4] = molecular target: T2, recombinant human CSF-1R (form not …); assay: BIAcore, experiment 2 of 3
Method: as §1

[5] = molecular target: T2, recombinant human CSF-1R (form not …); assay: BIAcore, experiment 3 of 3
Method: as §1

[6] = molecular target: T2, recombinant human CSF-1R (form not …); assay: BIAcore, purified antibody, mean
[7] = molecular target: T2, recombinant human CSF-1R (form not …); assay: BIAcore, purified antibody, experiment 1
[8] = molecular target: T2, recombinant human CSF-1R (form not …); assay: BIAcore, purified antibody, experiment 2
[9] = molecular target: T2, recombinant human CSF-1R (form not …); assay: BIAcore, mean of 3 (fourth row, unlabelled)
Method: as §1

[10] = molecular target: T2, recombinant human CSF-1R (form not …); assay: BIAcore, DG/SG comparison, crude cell supernatant
[11] = molecular target: T2, recombinant human CSF-1R (form not …); assay: ELISA ligand-blocking assay, antibody pre-mixed with 1 ng/ml CSF-1 (competitor), plate-bound CSF-1R
Text: (§2) This method is from here on referred to as the ‘ELISA ligand-blocking assay’.

[12] = molecular target: T2, recombinant human CSF-1R (form not …); assay: ELISA ligand-blocking assay, antibody pre-mixed with 10 ng/ml CSF-1 (competitor), plate-bound CSF-1R
Text: as §2

[13] = molecular target: T2, recombinant human CSF-1R (form not …); assay: ELISA ligand-blocking assay, antibody pre-mixed with 100 ng/ml CSF-1 (competitor), plate-bound CSF-1R
Text: as §2

fold decrease in potency against 969.g0, MCP-1 inhibition assay [1]: 13.5 fold | mean IC50, MCP-1 inhibition assay, primary human monocytes, 100 ng/ml CSF-1 [1]: 0.333 mg/L | IC50, MCP-1 inhibition assay, Donor 1 [2]: 0.667 mg/L | IC50, MCP-1 inhibition assay, Donor 2 [2]: 0.1 mg/L | IC50 ratio against chimeric 969.g0 (number in parentheses), Donor 1 [2]: 21.5 ratio | IC50 ratio against chimeric 969.g0 (number in parentheses), Donor 2 [2]: 17.6 ratio | Mean chimeric/graft IC50 ratio [2]: 19.6 ratio | Kd [3]: 2.9 pM | koff [3]: 5e-06 s⁻¹ | kon [3]: 1.71e+06 M⁻¹ s⁻¹ | Kd [4]: 3.8 pM | koff [4]: 7.03e-06 s⁻¹ | kon [4]: 1.85e+06 M⁻¹ s⁻¹ | Kd [5]: 3.7 pM | koff [5]: 6.76e-06 s⁻¹ | kon [5]: 1.84e+06 M⁻¹ s⁻¹ | Kd [6]: 5.1 pM | koff [6]: 8.05e-06 s⁻¹ | kon [6]: 1.57e+06 M⁻¹ s⁻¹ | Kd [7]: 5 pM | koff [7]: 8.13e-06 s⁻¹ | kon [7]: 1.63e+06 M⁻¹ s⁻¹ | Kd [8]: 5.3 pM | koff [8]: 7.96e-06 s⁻¹ | kon [8]: 1.5e+06 M⁻¹ s⁻¹ | Kd [9]: 3.5 pM | koff [9]: 6.26e-06 s⁻¹ | kon [9]: 1.8e+06 M⁻¹ s⁻¹ | Kd [10]: 1.6 pM | koff [10]: 5e-06 s⁻¹ | kon [10]: 3.22e+06 M⁻¹ s⁻¹ | IC50 [11]: 0.0197 mg/L | IC50 [12]: 0.268 mg/L | IC50 [13]: 3.95 mg/L
B1: Ab969.g5 (969gH2gL8(SG)) (antibody, V domains shown)
VH: EVTLKESGPALVKPTQTLTLTCTFSGFSLTTYGMGVGWIRQPPGKALEWLANIWWDDDKYYNPSLKNRLTISKDTSKNQVVLTMTNMDPVDTATYYCARIGPIKYPTAPYRYFDFWGQGTMVTVSS
VL: DIQMTQSPSSLSASVGDRVTITCLASEDIYDNLAWYQQKPGKAPKLLIYYASSLQSGVPSRFSGSGSGTDFTLTISSLQPEDFATYYCLQDSEYPWTFGGGTKVEIKR
